Earlier results as cited in patent US20040241152A1, “Methods for inducing an immune response with an elevated th1/th2 ratio, by intracellular induction of nfkappab” (priority 2001, published 2004).

Settings: molecule incorporated into DNA vaccine; cited from earlier work

In the case of “IL-2: cytokine incorporated into DNA vaccines”, the Antibody is listed as “↑IgG2a and ↑IgG”, the CTL is listed as “↑CTL” and the Cellular response is listed as “↑IFNγ; also recorded: ↑proliferation”.

“Also recorded” adds a separate entry of the source.
